From US4649911A, “Small particle aerosol generator for treatment of respiratory disease including the lungs” (Baylor College of Medicine, priority 1986, dated 1987)
Read-outs that look alike come from different tables or passages of the source.

Details: for Aerosol Concentration: Table 1, reservoir drug concentration 15 mg/ml

## NC(=O)c1ncn([C@@H]2O[C@H](CO)[C@@H](O)[C@H]2O)n1 [ribavirin]
FIG. 7 apparatus, at 5 hours
  output of drug in small particle aerosol: 343 micrograms per liter
FIG. 7 apparatus, over 5 hours
  increase in aerosol output concentration: 5.5%
Nebulizer of FIG. 3
  Aerosol Concentration: 120 µg/L
Nebulizer of FIG. 7
  Aerosol Concentration: 165 µg/L
Nebulizer of FIGS. 1 & 2
  Aerosol Concentration: 64 µg/L
From spray factors
  higher aerosol output, FIG. 7 as compared to FIG. 3: 37.5%
